Laboratory results from ChEMBL document CHEMBL4190377, “Design of Aminopeptidase N Inhibitors as Anti-cancer Agents” (J Med Chem, 2018).

Sequences of proteins named here, by UniProt entry; tags and fusion partners are left off. A change or cut given only in a name is not applied to a line headed by its entry.
UniProt P15144: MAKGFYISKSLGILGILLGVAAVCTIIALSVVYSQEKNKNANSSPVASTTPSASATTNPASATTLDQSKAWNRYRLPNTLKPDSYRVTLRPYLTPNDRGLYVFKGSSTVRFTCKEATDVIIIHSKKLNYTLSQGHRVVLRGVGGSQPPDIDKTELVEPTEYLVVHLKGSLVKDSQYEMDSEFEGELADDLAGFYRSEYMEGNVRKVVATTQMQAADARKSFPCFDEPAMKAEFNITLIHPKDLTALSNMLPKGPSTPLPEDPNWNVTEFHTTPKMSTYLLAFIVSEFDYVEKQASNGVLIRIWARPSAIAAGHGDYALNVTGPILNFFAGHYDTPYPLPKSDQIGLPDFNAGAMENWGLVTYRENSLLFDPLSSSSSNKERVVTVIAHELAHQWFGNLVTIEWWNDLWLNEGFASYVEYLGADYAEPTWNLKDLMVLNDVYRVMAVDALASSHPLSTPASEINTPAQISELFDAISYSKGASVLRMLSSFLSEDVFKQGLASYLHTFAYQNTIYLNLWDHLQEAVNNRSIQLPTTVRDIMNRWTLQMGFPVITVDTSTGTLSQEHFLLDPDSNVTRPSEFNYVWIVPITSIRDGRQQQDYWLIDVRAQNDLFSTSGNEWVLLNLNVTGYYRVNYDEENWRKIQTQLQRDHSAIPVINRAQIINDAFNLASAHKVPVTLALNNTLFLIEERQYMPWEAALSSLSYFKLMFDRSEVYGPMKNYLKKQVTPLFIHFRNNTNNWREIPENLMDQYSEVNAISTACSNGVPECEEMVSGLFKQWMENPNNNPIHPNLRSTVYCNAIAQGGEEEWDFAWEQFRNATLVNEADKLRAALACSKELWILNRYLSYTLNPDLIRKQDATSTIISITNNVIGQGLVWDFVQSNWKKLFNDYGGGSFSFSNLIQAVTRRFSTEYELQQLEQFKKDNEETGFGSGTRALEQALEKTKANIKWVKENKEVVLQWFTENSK

Molecular target: Aminopeptidase N (Homo sapiens, UniProt P15144)

COc1cc(/C=C/C(=O)CC(=O)/C=C/c2ccc(O)c(OC)c2)ccc1O [CURCUMIN]
IC50: 15.5 µM
